# In patent US7256286B2, “Bryostatin analogues, synthetic methods and uses” (The Board of Trustees of the Leland Stanford Junior …, priority 1999, dated 2007):
# Amino acid sequences for entries named in this document (tags omitted). A change or cut given only in a name is not applied to a line headed by its entry. Residues count along the entry.
# UniProt P28867, 231-281 limits assumed: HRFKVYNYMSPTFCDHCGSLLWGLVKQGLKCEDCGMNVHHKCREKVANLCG
# Key:
# P388 cell line = assay: P388 murine lymphocytic leukemia cell assay; details: for activity in P388 assay compared with other analogues: 702.1 vs corresponding C26 methyl-containing analogue, 48, 49 among C20 ester analogues; for EC50: read-out: P388 Assay ED50, 5 days incubation, MTT
# Protocol: Cells from a P388 cell line (CellGate, Inc., Sunnyvale, Calif.) are grown in RPMI 1640 cell medium containing fetal calf serum (10%), L-glutamine, penicillin, streptomycin and are split twice weekly. All compounds are first diluted with DMSO. Later serial dilutions are done with a phosphate buffer solution (HYQ DPBS modified phosphate buffered saline). All dilutions are done in glass vials and the final DMSO concentration is always below 0.5% by volume. Final two-fold dilutions are done in a 96 well plate using cell media so that each well contains 50 μL. All compounds are assayed in quadruplicate over 12 concentrations. Cell concentration is measured using a hemacytometer and the final cell concentration is adjusted to 1×10^4 cells/mL with cell medium. The resulting solution of cells (50 μL) is then added to each well and the plates are incubated for 5 days in a 37° C., 5% CO2, humidified incubator (Sanyo CO2 incubator). MTT solution (3-[4,5-dimethylthiazol-2-yl]-2,5-diphenyltetrazolium bromide, 10 μL) is then added to each well and the plates are re-incubated under identical conditions for 2 h. To each well is then added acidified isopropanol (150 μL of i-PrOH solution containing 0.05 N HCl) and mixed thoroughly. The plates are then scanned at 595 nm and the absorbances are read (Wallac Victor 1420 Multilabel Counter). The resulting data is then analyzed to determine an ED50 value using the Prism software package (GraphPad).
# PKCδ-C1B = PKCδ-C1B (Mus musculus, UniProt P28867); assay: PKCδ-C1B assay; details: for activity in PKCδ-C1B assay compared with other analogues: 702.1 vs corresponding C26 methyl-containing analogue, 48, 49 among C20 ester analogues; for Ki: read-out: PKCδ-C1B Assay Ki, competition with tritiated phorbol 12,13-dibutyrate
# Text: Example 6 describes another protein kinase C assay which can be used to assess the binding affinities of compounds of the invention for binding to the C1B domain of PKCδ. […] Overexpression of PKCδ inhibits tumor cell growth and induces cellular apoptosis, whereas depleting cells of PKCδ can cause tumor promotion. Accordingly, this assay provides useful binding data for assessing potential anticancer activity.
# The following procedure was used, based on a modification of a previous procedure described by Tanaka et al. (1986). Filters (Whatman GF-B, 21 mm diam.) are soaked for 1 h in a solution containing deionized water (97 mL), and 10% polyethyleneamine (3 mL). A filtering buffer solution containing TRIS (1M, pH 7.4, 10 mL) and water (490 mL) is prepared and cooled on ice. An assay buffer solution is prepared by the addition of TRIS (1M, pH 7.4, 1 mL), KCl (1M, 2 mL), CaCl2 (0.1M, 30 μL), bovine serum albumin (40 mg), diluted to 20 mL with deionized water and stored on ice. Phosphatidyl serine vesicles are prepared by the addition of phosphatidyl serine (10 mg/mL in chloroform, 0.4 mL) to a glass test tube followed by removal of the chloroform under a stream of nitrogen (5 min). To this viscous liquid is added a portion of the prepared assay buffer (4 mL) and the resulting mixture is then transferred to a plastic tube with washing. This tube is then sonicated (Branson Sonifier 250, power=6, 40% duty cycle) four times for 30 sec. with a 30 sec. rest period between sonications. The resulting solution is stored over ice. PKC is prepared by addition of cooled assay buffer (10 mL) to PKC (25 μL) purified from rat brain by the method of Mochly-Rosen and Koshland (1986) and then stored on ice. Stock solutions of compounds are diluted with absolute ethanol in glass in serial fashion. Each plastic assay incubation tube is made to contain prepared phosphatidyl serine vesicles (60 μL), prepared PKC solution (200 μL) and analogue (0–20 μL) plus EtOH (20–0 μL) for a total volume of 20 μL). […] Non-specific binding is measured in 1–3 tubes by the substitution of phorbol myristate acetate (PMA) (1 mM, 5 μL) and EtOH (15 μL) for the analogue/EtOH combination. […] The filters are immediately counted in a scintillation counter (Beckman LS 6000SC). […] The data is then plotted using a least squares fit algorithm with the Macintosh version of Kaleidagraph© (Abelbeck Software) and an IC50 (defined as the concentration of analogue required to displace half of the specific PDBU binding to PKC) is calculated. […]
# All aspects of the PKCδ-C1B assay are identical to the PKC isozyme mix assay from Example 5 except the following features: In the PKCδ-C1B assay system, assay buffer is made without CaCl2. […] An aliquot (290 μL) is further diluted to 20 mL with assay buffer and is ready for use. […]
Compound,activity in P388 assay compared with other analogues (P388 cell line),EC50 (P388 cell line),activity in PKCδ-C1B assay compared with other analogues (PKCδ-C1B),Ki (PKCδ-C1B)
COC(=O)/C=C1\C[C@H]2C[C@H]([C@@H](C)O)OC(=O)C[C@H](O)C[C@@H]3CCC[C@H](C[C@@H]4CCO[C@H](/C=C/C(C)(C)[C@](O)(O2)[C@H]1OC(=O)c1ccccc1)O4)O3,higher activity,42 nM,higher activity,1.7 nM
CCCCCCCCCCCCCC(=O)O[C@H]1/C(=C/C(=O)OC)C[C@H]2C[C@H]([C@@H](C)O)OC(=O)C[C@H](O)C[C@@H]3CCC[C@H](C[C@@H]4CCO[C@H](/C=C/C(C)(C)[C@]1(O)O2)O4)O3,higher activity,3.6 nM,higher activity,1.3 nM
